# Assay: Phase 1/2a study, safety
# [1] = overall (N=73), regardless of grade
# [2] = ≤65 mg BID (N=23), regardless of grade
compound,measurement,setting,value
C=CC(=O)N[C@H]1C=C(C)c2c(-c3cnc4ccccc4c3)c3c(N)ncnc3n2C1,Diarrhea,all dose levels,30 % of patients
same,Dose reduction because of rash,all dose levels,three
same,Drug-related deaths,all dose levels,No drug-related deaths
same,Grade 3 or 4 ALT/AST increase,all dose levels,four
same,Pneumonitis possibly related to treatment,all dose levels,four
same,Rash,all dose levels,80 % of patients
same,"Treatment-related discontinuation, reason",all dose levels,allergic reaction
same,Treatment-related discontinuations due to fatigue,all dose levels,1
same,Treatment-related discontinuations due to hepatic toxicity,all dose levels,2
same,Treatment-related discontinuations due to pneumonitis,all dose levels,2
same,Treatment-related serious AE diarrhea,all dose levels,1
same,Treatment-related serious AE hypersensitivity reaction,all dose levels,1
same,Treatment-related serious AE pneumonitis,all dose levels,2
same,"Grade 3 diarrhea, cases",both at the highest dose level tested,two
same,"Pneumonitis, grade (case 3)",discontinued pembrolizumab and chemotherapy about 1 month before,grade 3
same,"Dose-limiting toxicities, DLR (Day 1-21)","dose level 30, BID, 8 patients",0
same,"Dose-limiting toxicities, DLT (Day 22-EOT)","dose level 30, BID, 8 patients",0
same,"Dose-limiting toxicities, DLR (Day 1-21)","dose level 45, BID, 1 patient",0
same,"Dose-limiting toxicities, DLT (Day 22-EOT)","dose level 45, BID, 1 patient",0
same,"Dose-limiting toxicities, DLR (Day 1-21)","dose level 65, BID, 14 patients",0
same,"Dose-limiting toxicities, DLT (Day 22-EOT)","dose level 65, BID, 14 patients, hepatic",1 (hepatic)
same,"Dose-limiting toxicities, DLR (Day 1-21)","dose level 100, BID, 39 patients",0
same,"Dose-limiting toxicities, DLT (Day 22-EOT)","dose level 100, BID, 39 patients, pneumonitis",1 (pneumonitis)
same,"Dose-limiting toxicities, DLR (Day 1-21)","dose level 150, BID, 11 patients, diarrhea",2 (diarrhea)
same,"Dose-limiting toxicities, DLT (Day 22-EOT)","dose level 150, BID, 11 patients, pneumonitis, hepatic","2 (pneumonitis,"
same,Discontinued because of AST/ALT elevation,of four patients with grade 3 or 4 ALT/AST increase,Two of the four
same,"Diarrhea, share grade 1",of patients with diarrhea,68%
same,"Diarrhea, share grade 2",of patients with diarrhea,23%
same,"Diarrhea, share grade 3",of patients with diarrhea,9%
same,"Treatment-related rash, share grade 1",of patients with rash,70%
same,"Treatment-related rash, share grade 2",of patients with rash,28%
same,"Treatment-related rash, share grade 3",of patients with rash,2%
same,TEAE ≥Grade 3 ALT increased,overall (N=73),3 (4.1) No (%)
same,TEAE ≥Grade 3 AST increased,overall (N=73),3 (4.1) No (%)
same,TEAE ≥Grade 3 anemia,overall (N=73),8 (11.0) No (%)
same,TEAE ≥Grade 3 diarrhea,overall (N=73),3 (4.1) No (%)
same,TEAE ≥Grade 3 disease progression,overall (N=73),3 (4.1) No (%)
same,TEAE ≥Grade 3 dyspnea,overall (N=73),4 (5.5) No (%)
same,TEAE ≥Grade 3 pneumonia,overall (N=73),4 (5.5) No (%)
same,"TRAE AST increased, number","overall (N=73), all grade",8
same,"TRAE AST increased, percent","overall (N=73), all grade",(11) %
same,"TRAE alopecia, number","overall (N=73), all grade",9
same,"TRAE alopecia, percent","overall (N=73), all grade",(12) %
same,"TRAE anemia, number","overall (N=73), all grade",14
same,"TRAE anemia, percent","overall (N=73), all grade",(19) %
same,"TRAE decreased appetite, number","overall (N=73), all grade",8
same,"TRAE decreased appetite, percent","overall (N=73), all grade",(11) %
same,"TRAE diarrhea, number","overall (N=73), all grade",22
same,"TRAE diarrhea, percent","overall (N=73), all grade",(30) %
same,"TRAE dry skin, number","overall (N=73), all grade",13
same,"TRAE dry skin, percent","overall (N=73), all grade",(18) %
same,"TRAE fatigue, number","overall (N=73), all grade",15
same,"TRAE fatigue, percent","overall (N=73), all grade",(21) %
same,"TRAE nausea, number","overall (N=73), all grade",12
same,"TRAE nausea, percent","overall (N=73), all grade",(16) %
same,"TRAE paronychia, number","overall (N=73), all grade",23
same,"TRAE paronychia, percent","overall (N=73), all grade",(32) %
same,"TRAE rash, number","overall (N=73), all grade",58
same,"TRAE rash, percent","overall (N=73), all grade",(80) %
same,"TRAE AST increased, number","overall (N=73), grade ≥3",3
same,"TRAE AST increased, percent","overall (N=73), grade ≥3",(4) %
same,"TRAE alopecia, number","overall (N=73), grade ≥3",0
same,"TRAE anemia, number","overall (N=73), grade ≥3",7
same,"TRAE anemia, percent","overall (N=73), grade ≥3",(9.6) %
same,"TRAE decreased appetite, number","overall (N=73), grade ≥3",0
same,"TRAE diarrhea, number","overall (N=73), grade ≥3",2
same,"TRAE diarrhea, percent","overall (N=73), grade ≥3",(3) %
same,"TRAE dry eye, number","overall (N=73), grade ≥3",0
same,"TRAE dry skin, number","overall (N=73), grade ≥3",0
same,"TRAE fatigue, number","overall (N=73), grade ≥3",0
same,"TRAE nausea, number","overall (N=73), grade ≥3",0
same,"TRAE paronychia, number","overall (N=73), grade ≥3",0
same,"TRAE rash, number","overall (N=73), grade ≥3",1
same,"TRAE rash, percent","overall (N=73), grade ≥3",(1) %
same,"TRAE stomatitis, number","overall (N=73), grade ≥3",1
same,"TRAE stomatitis, percent","overall (N=73), grade ≥3",(1) %
same,"TEAE ALT increased, number (percent)",[1],8 (11.0)
same,"TEAE AST increased, number (percent)",[1],10 (13.7)
same,"TEAE alopecia, number (percent)",[1],12 (16.4)
same,"TEAE anemia, number (percent)",[1],23 (31.5)
same,"TEAE arthralgia, number (percent)",[1],12 (16.4)
same,"TEAE constipation, number (percent)",[1],16 (21.9)
same,"TEAE cough, number (percent)",[1],16 (21.9)
same,"TEAE decreased appetite, number (percent)",[1],20 (27.4)
same,"TEAE diarrhea, number (percent)",[1],26 (35.6)
same,"TEAE dizziness, number (percent)",[1],10 (13.7)
same,"TEAE dry skin, number (percent)",[1],15 (20.5)
same,"TEAE dyspnea, number (percent)",[1],20 (27.4)
same,"TEAE edema peripheral, number (percent)",[1],10 (13.7)
same,"TEAE fatigue, number (percent)",[1],23 (31.5)
same,"TEAE headache, number (percent)",[1],11 (15.1)
same,"TEAE insomnia, number (percent)",[1],8 (11.0)
same,"TEAE nausea, number (percent)",[1],20 (27.4)
same,"TEAE paronychia, number (percent)",[1],26 (35.6)
same,"TEAE pyrexia, number (percent)",[1],10 (13.7)
same,"TEAE rash, number (percent)",[1],61 (83.6)
same,"TEAE vomiting, number (percent)",[1],14 (19.2)
same,"Pneumonitis, grade (case 2)",patient with history of pneumonitis with osimertinib,grade 2
same,Safety and tolerability,"recurrent or metastatic EGFR ex20ins NSCLC, previously treated",favorable safety and tolerability
same,"Pneumonitis, grade (case 1)","resolved after dose hold and corticosteroids, resumed at same dose",grade 1
same,"Pneumonitis, grade (case 4)","ultimately deemed unrelated, Pneumocystis jirovecii pneumonia",grade 3
same,TEAE ≥Grade 3 anemia,≤65 mg BID (N=23),5 (21.7) No (%)
same,TEAE ≥Grade 3 disease progression,≤65 mg BID (N=23),2 (8.7) No (%)
same,"TRAE AST increased, number","≤65 mg BID (N=23), all grade",3
same,"TRAE AST increased, percent","≤65 mg BID (N=23), all grade",(13) %
same,"TRAE alopecia, number","≤65 mg BID (N=23), all grade",3
same,"TRAE alopecia, percent","≤65 mg BID (N=23), all grade",(13) %
same,"TRAE anemia, number","≤65 mg BID (N=23), all grade",7
same,"TRAE anemia, percent","≤65 mg BID (N=23), all grade",(30) %
same,"TRAE decreased appetite, number","≤65 mg BID (N=23), all grade",4
same,"TRAE decreased appetite, percent","≤65 mg BID (N=23), all grade",(17) %
same,"TRAE diarrhea, number","≤65 mg BID (N=23), all grade",4
same,"TRAE diarrhea, percent","≤65 mg BID (N=23), all grade",(17) %
same,"TRAE dry eye, number","≤65 mg BID (N=23), all grade",1
same,"TRAE dry eye, percent","≤65 mg BID (N=23), all grade",(4) %
same,"TRAE dry skin, number","≤65 mg BID (N=23), all grade",6
same,"TRAE dry skin, percent","≤65 mg BID (N=23), all grade",(26) %
same,"TRAE fatigue, number","≤65 mg BID (N=23), all grade",5
same,"TRAE fatigue, percent","≤65 mg BID (N=23), all grade",(22) %
same,"TRAE nausea, number","≤65 mg BID (N=23), all grade",5
same,"TRAE nausea, percent","≤65 mg BID (N=23), all grade",(22) %
same,"TRAE rash, number","≤65 mg BID (N=23), all grade",19
same,"TRAE rash, percent","≤65 mg BID (N=23), all grade",(83) %
same,"TRAE stomatitis, number","≤65 mg BID (N=23), all grade",2
same,"TRAE stomatitis, percent","≤65 mg BID (N=23), all grade",(9) %
same,"TRAE AST increased, number","≤65 mg BID (N=23), grade ≥3",1
same,"TRAE AST increased, percent","≤65 mg BID (N=23), grade ≥3",(4.3) %
same,"TRAE alopecia, number","≤65 mg BID (N=23), grade ≥3",0
same,"TRAE anemia, number","≤65 mg BID (N=23), grade ≥3",4
same,"TRAE anemia, percent","≤65 mg BID (N=23), grade ≥3",(17.4) %
same,"TRAE decreased appetite, number","≤65 mg BID (N=23), grade ≥3",0
same,"TRAE diarrhea, number","≤65 mg BID (N=23), grade ≥3",0
same,"TRAE dry eye, number","≤65 mg BID (N=23), grade ≥3",0
same,"TRAE dry skin, number","≤65 mg BID (N=23), grade ≥3",0
same,"TRAE fatigue, number","≤65 mg BID (N=23), grade ≥3",0
same,"TRAE nausea, number","≤65 mg BID (N=23), grade ≥3",0
same,"TRAE paronychia, number","≤65 mg BID (N=23), grade ≥3",0
same,"TRAE rash, number","≤65 mg BID (N=23), grade ≥3",0
same,"TRAE stomatitis, number","≤65 mg BID (N=23), grade ≥3",0
same,"TEAE ALT increased, number (percent)",[2],2 (8.7)
same,"TEAE AST increased, number (percent)",[2],3 (13.0)
same,"TEAE alopecia, number (percent)",[2],3 (13.0)
same,"TEAE anemia, number (percent)",[2],12 (52.2)
same,"TEAE arthralgia, number (percent)",[2],4 (17.4)
same,"TEAE constipation, number (percent)",[2],7 (30.4)
same,"TEAE cough, number (percent)",[2],4 (17.4)
same,"TEAE decreased appetite, number (percent)",[2],8 (34.8)
same,"TEAE diarrhea, number (percent)",[2],7 (30.4)
same,"TEAE dizziness, number (percent)",[2],2 (8.7)
same,"TEAE dry eye, number (percent)",[2],1 (4.3)
same,"TEAE dry skin, number (percent)",[2],6 (26.1)
same,"TEAE dyspnea, number (percent)",[2],6 (26.1)
same,"TEAE edema peripheral, number (percent)",[2],4 (17.4)
same,"TEAE fatigue, number (percent)",[2],5 (21.7)
same,"TEAE headache, number (percent)",[2],4 (17.4)
same,"TEAE insomnia, number (percent)",[2],2 (8.7)
same,"TEAE nausea, number (percent)",[2],6 (26.1)
same,"TEAE pyrexia, number (percent)",[2],2 (8.7)
same,"TEAE rash, number (percent)",[2],20 (87.0)
same,"TEAE stomatitis, number (percent)",[2],2 (8.7)
same,"TEAE vomiting, number (percent)",[2],4 (17.4)
